The source of these data is PubChem BioAssay AID588590 (National Center for Advancing Translational Sciences (NCATS), 2011).

The chains behind the UniProt entries cited, without tags or fusion partners.
UniProt Q9UNA4, whole entry: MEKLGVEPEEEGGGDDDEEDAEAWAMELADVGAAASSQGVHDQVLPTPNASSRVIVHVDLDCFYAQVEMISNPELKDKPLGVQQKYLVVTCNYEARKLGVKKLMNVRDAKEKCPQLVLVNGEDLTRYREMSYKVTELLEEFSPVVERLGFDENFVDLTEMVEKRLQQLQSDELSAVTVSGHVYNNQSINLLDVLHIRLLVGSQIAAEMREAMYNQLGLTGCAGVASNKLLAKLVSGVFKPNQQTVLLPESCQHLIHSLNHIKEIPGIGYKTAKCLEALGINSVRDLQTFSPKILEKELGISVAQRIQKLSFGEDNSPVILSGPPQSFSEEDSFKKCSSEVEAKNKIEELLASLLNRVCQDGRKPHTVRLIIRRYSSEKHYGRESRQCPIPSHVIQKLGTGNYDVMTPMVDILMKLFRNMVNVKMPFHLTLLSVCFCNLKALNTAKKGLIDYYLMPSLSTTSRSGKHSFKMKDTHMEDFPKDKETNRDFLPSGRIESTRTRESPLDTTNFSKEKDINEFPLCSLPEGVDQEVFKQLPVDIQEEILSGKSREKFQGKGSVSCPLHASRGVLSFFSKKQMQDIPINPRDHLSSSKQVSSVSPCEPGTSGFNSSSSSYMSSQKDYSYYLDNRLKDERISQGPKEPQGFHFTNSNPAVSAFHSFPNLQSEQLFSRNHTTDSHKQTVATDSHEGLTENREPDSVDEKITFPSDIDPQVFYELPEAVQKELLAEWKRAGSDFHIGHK

The structures appear in SMILES notation. The entries are a selection whose mix differs from that of the whole data set. Records with an inconclusive call do not appear. Calls of active or inactive are those of the source. The call rests on the fitted dose curve; in most records, active means well fitted inhibition curve with a large enough effect; inconclusive means small, poorly fitted or top-dose-only effect, or another doubt; inactive means no such curve, though single readings can be large or run the other way.

In this assay the target is DNA polymerase iota (Homo sapiens) (UniProt Q9UNA4). Put plainly: qHTS for Inhibitors of Polymerase Iota. To be noted: Pol iota fluorescent replication assay, 10 min; at 115 µM (top of the series). Background: qHTS replaces the single test concentration by a dilution series.
As for `CCC(=O)N(c1ccccc1)C1(COC)CCN(CCn2nnn(CC)c2=O)CC1`, the activity, negative = inhibition was inactive: 12.2%.
